These results are taken from PubChem BioAssay AID652104 (National Center for Advancing Translational Sciences (NCATS), 2013).

The entries are a selection whose mix differs from that of the whole data set. Records with an inconclusive call do not appear. Calls of active or inactive are those of the source. Calls follow the shape of the dose curve; as a rule, active = well fitted activation curve with a large enough effect; inconclusive = small, poorly fitted or top-dose-only effect, or another doubt; inactive = no such curve, though single readings can be large or run the other way.

The nature of the assay: qHTS of TDP-43 Inhibitors. Also: % of control where 0% means no effect; nearly all actives have a fitted effect of over 50% in size. To be noted: TDP-43 expressing yeast growth rescue, BacTiter-Glo, 24 h; series mostly up to 46.1 µM. For orientation: Quantitative high-throughput screening tests each substance at several concentrations.
In the case of `Oc1ccccc1CNc1ccccn1`, the growth rescue (activation) result is “inactive”. Turning to `O=C(NC(Sc1ccncn1)C(Cl)(Cl)Cl)c1ccccc1` (stereo not drawn), the growth rescue (activation) result is “inactive”.

As to `CC(C)CC(=O)NC(Sc1ccc(Cl)cc1)C(Cl)(Cl)Cl` (stereo not drawn), the growth rescue (activation) entry was “inactive”. For the compound `Nc1cc(N)c2nonc2c1[N+](=O)[O-]`, the growth rescue (activation) result was “inactive”.

As to `O=[N+]([O-])C1C(O)C(O)C([N+](=O)[O-])C(O)C1O` (stereo not drawn), the growth rescue (activation) result is “inactive”. Regarding `CN(C(=O)Cc1ccc(Cl)c(Cl)c1)[C@H]1CCCC[C@H]1N1CCCC1`, the growth rescue (activation) entry was “inactive”. The result for `Cc1ccc(N/C(=N/P(=O)(N2CCOCC2)N2CCOCC2)N2CCOCC2)cc1` reads “inactive”; that for `NC(=O)c1cc([N+](=O)[O-])cc([N+](=O)[O-])c1N`, “inactive”; that for `CN1CCCC(OC(=O)C(c2ccccc2)c2ccccc2)C1` (stereo not drawn), “inactive”.

Regarding `COc1ccccc1OP(=O)(Nc1ccc(C)cn1)Oc1ccccc1OC`, the growth rescue (activation) entry was “inactive”.

`Cc1ccc(OP(=O)(Nc2nccs2)Oc2ccc(C)cc2)cc1`: the growth rescue (activation) result was “inactive”. For `Nc1cccc2ccc([As](=O)(O)O)cc12` the value was “inactive”; for `CCN(N=Nc1nonc1N)c1nonc1N`, “inactive”; for `O=P(Nc1nc2ccc(Cl)cc2s1)(c1ccccc1)c1ccccc1`, “inactive”.

As to `O=C(O)c1ccccc1[As](=O)(O)O`, the growth rescue (activation) result was “inactive”. The result for `CC(=O)Nc1ccc([As](=O)(O)O)cc1` reads “inactive”.

On to `CCCC1OP(N)(=O)OCC1CC` (stereo not drawn), for which the growth rescue (activation) entry is “inactive”. For `CCOP(=O)(Nc1ccccc1)OCC` the value was “inactive”. For `Cc1cc(SC(NC(=O)c2ccc(F)cc2)C(Cl)(Cl)Cl)ncn1` (stereo not drawn) the value was “inactive”. Consider `CN(C(=O)Cc1ccc(Cl)c(Cl)c1)[C@H]1CCCC[C@@H]1N1CCCC1`, for which the growth rescue (activation) entry was “inactive”. For `Cc1ccc(NP(=O)(Oc2ccccc2F)Oc2ccccc2F)nc1` the value was “inactive”. `O=[N+]([O-])c1ncn(CCn2ncnc2[N+](=O)[O-])n1`: the growth rescue (activation) entry is “inactive”.

With `CC(C)(C)C(=O)NC(Sc1ccncn1)C(Cl)(Cl)Cl` (stereo not drawn), the growth rescue (activation) result was “inactive”. For the compound `O=C(O)CNc1ccc([As](=O)(O)O)cc1`, the growth rescue (activation) entry is “inactive”. For `O=[N+]([O-])c1cccc(NC2=NCC(CBr)S2)c1` (stereo not drawn) the value was “inactive”; for `COC(=O)C1(C)COP(=O)(Nc2ccccc2)OC1` (stereo not drawn), “inactive”. For `O=P1(N(CCCl)CCCl)OCCCS1` (stereo not drawn) the value was “inactive”. Regarding `O=C(Nc1cc([As](=O)(O)O)ccc1O)c1ccccc1`, the growth rescue (activation) result is “inactive”. For `CCN(/C(=N/P(=O)(N1CCOCC1)N1CCOCC1)N1CCOCC1)c1ccc(OC)cc1` the value was “inactive”. With `Nc1ccc([As](=O)(O)c2ccc(N)cc2)cc1`, the growth rescue (activation) result was “inactive”. The result for `c1cc(-c2nn[nH]n2)ccc1-c1nn[nH]n1` reads “inactive”. For the compound `CC(C)=N/N=C(\N)N[N+](=O)[O-]`, the growth rescue (activation) entry was “inactive”.

As for `CC(C)c1nc(Nc2ccccc2)n(P(=O)(N(C)C)N(C)C)n1`, the growth rescue (activation) result was “inactive”. For `CN(C)C(=O)OCCc1n(C)cc[n+]1C`, the growth rescue (activation) result is “inactive”. With `COc1ccc(C2=NCC(CBr)S2)cc1` (stereo not drawn), the growth rescue (activation) was inactive: 1.91% [at 9.22 µM]. The result for `O=[N+]([O-])c1cc([N+](=O)[O-])c(CCNc2ccccc2)c([N+](=O)[O-])c1` reads “inactive”; that for `CCc1nc2c(n1)c1c(non1O)c1c2no[n+]1[O-]`, “inactive”. For `CC(=O)N1C2C3N(C(C)=O)C1C1N(C(C)=O)C(C(N1C(C)=O)N3C(C)=O)N2C(C)=O`, the growth rescue (activation) result is “inactive”. For `O=[N+]([O-])c1cccc2n[nH]nc12` the value was “inactive”; for `O=P(Nc1nccs1)(c1ccccc1)c1ccccc1`, “inactive”. The result for `CC(C)C(=O)NC(Sc1ccccc1)C(Cl)(Cl)Cl` (stereo not drawn) reads “inactive”; that for `c1nnnn1CCn1cnnn1`, “inactive”.

As to `O=[As](O)(c1ccccc1)c1ccc(O)cc1`, the growth rescue (activation) result is “inactive”.

With `O=[N+]([O-])c1ncn(CCn2cnc([N+](=O)[O-])n2)n1`, the growth rescue (activation) result was “inactive”. The result for `O=C(OC1CN2CCC1CC2)c1cccc(Cl)c1` (stereo not drawn) reads “inactive”; that for `Nc1ccc([As](=O)(O)c2ccc([N+](=O)[O-])cc2)cc1`, “inactive”; that for `C(Cc1nn[nH]n1)Cc1nn[nH]n1`, “inactive”. On to `CN(C)C1(CNC(=O)c2ccc(Cl)c(S(N)(=O)=O)c2)CCCCC1`, for which the growth rescue (activation) result was “inactive”. The result for `O=P(Nc1ccccn1)(c1ccc(Br)cc1)c1ccc(Br)cc1` reads “inactive”.

Turning to `COc1ccc(N)c([N+](=O)[O-])c1[N+](=O)[O-]`, the growth rescue (activation) entry is “inactive”. For `O=P(Nc1nc2ccccc2s1)(c1ccccc1)c1ccccc1` the value was “inactive”; for `C[C@H]1OP(=O)(Oc2ccccc2)[C@H](O)[C@H](O)[C@H]1N=[N+]=[N-]` (stereo partly drawn), “inactive”; for `O=C(OC1CN2CCC1CC2)c1ccccc1` (stereo not drawn), “inactive”. The result for `CCC(=O)N1C2C3N(C(=O)CC)C1C1N(C(=O)CC)C(C(N1C(=O)CC)N3C(=O)CC)N2C(=O)CC` reads “inactive”; that for `COC(=O)c1cc2c(s1)N=C(c1ccccc1)N(C)P2(=O)N1CCOCC1` (stereo not drawn), “inactive”. For `Cc1ccc(OP(=O)(Nc2ccccn2)Oc2ccc(C)cc2)cc1` the value was “inactive”; for `CC(=O)NC(SC(=S)N(CC(C)C)CC(C)C)C(Cl)(Cl)Cl` (stereo not drawn), “inactive”. With `Cc1ccccc1OP(=O)(Nc1ccccn1)Oc1ccccc1C`, the growth rescue (activation) result is “inactive”.

For `CC(NC(=O)COC(=O)C(O)(c1ccccc1)c1ccccc1)c1ccccc1` (stereo not drawn), the growth rescue (activation) entry was “inactive”.

With `CN(C)C(=O)Oc1noc2ccccc12`, the growth rescue (activation) entry is “inactive”.

As for `O=c1c2cc([N+](=O)[O-])ccc2[nH]c2c([N+](=O)[O-])cc([N+](=O)[O-])cc12`, the growth rescue (activation) entry was “inactive”.

With `c1ccc(-c2nn[nH]n2)c(-c2nn[nH]n2)c1`, the growth rescue (activation) entry was “inactive”. Consider `Cc1ccc(NP(=O)(Oc2cccc(C)c2)Oc2cccc(C)c2)nc1`, for which the growth rescue (activation) result was “inactive”. For `O=C(NC1CCS(=O)(=O)C1)NP(=S)(Oc1ccccc1)Oc1ccccc1` (stereo not drawn) the value was “inactive”. For `CCNC(=S)/N=C(\N)N[N+](=O)[O-]`, the growth rescue (activation) was inactive: -9.14% [at 0.397 µM]. As for `O=P1(N(CCCl)CCCl)OCCC2CCCCN21` (stereo not drawn), the growth rescue (activation) entry was “inactive”.

On to `Cc1ccccc1CN(C)C(=O)COC(=O)C(O)(c1ccccc1)c1ccccc1`, for which the growth rescue (activation) result was “inactive”. The result for `C[C@@H]1C=CCP(=O)(Oc2ccccc2)O1` (stereo partly drawn) reads “inactive”; that for `C[C@H]1OP(=O)(Oc2ccccc2)C[C@@H]2O[C@@H]21` (stereo partly drawn), “inactive”; that for `N#C/C(=C\c1ccc(N(CCBr)CCBr)cc1)C(N)=O`, “inactive”. `CC(=O)c1ccc(N2CC2c2ccncc2)cc1` (stereo not drawn): the growth rescue (activation) entry is “inactive”. On to `COC(=O)C1(C)COP(=O)(NCc2ccccc2)OC1` (stereo not drawn), for which the growth rescue (activation) result is “inactive”. The result for `CC(=O)Nc1ccc([As](=O)(O)O)c(O)c1` reads “inactive”; that for `CC(=O)Nc1ccc(Oc2c([N+](=O)[O-])cc([N+](=O)[O-])cc2[N+](=O)[O-])cc1`, “inactive”. The result for `O=P1(Nc2nc3ccc(Cl)cc3s2)COc2ccccc2O1` (stereo not drawn) reads “inactive”; that for `CCOc1ccc(C2=NCC(CBr)S2)cc1` (stereo not drawn), “inactive”.

As to `CC(C)(C)C(=O)NC(Sc1ccccc1)C(Cl)(Cl)Cl` (stereo not drawn), the growth rescue (activation) entry was “inactive”. For the compound `CCc1cc(O)c([N+](=O)[O-])c(C)c1[N+](=O)[O-]`, the growth rescue (activation) result is “inactive”. On to `Nc1cccc2c([As](=O)(O)O)cccc12`, for which the growth rescue (activation) result is “inactive”. For `Cc1ccc(NCCc2c([N+](=O)[O-])cc([N+](=O)[O-])cc2[N+](=O)[O-])cc1` the value was “inactive”; for `CCCOP(=S)(Nc1nc(N)cc(=O)[nH]1)OCCC`, “inactive”; for `COc1cc(C2NCCC3(OCCO3)C2(C)C)cc(OC)c1OC` (stereo not drawn), “inactive”. `CCOP(=O)(Nc1cccc2ccccc12)OCC`: the growth rescue (activation) entry was “inactive”. Take `O=C(OC1CN2CCC1CC2)c1ccc(Cl)cc1` (stereo not drawn): the growth rescue (activation) was inactive: -3.52% [at 1.82 µM]. For `COc1cc(C(=O)NCC2(N3CCOCC3)CCCCC2)cc(Cl)c1OC(C)C` the value was “inactive”; for `O=[As](O)(O)c1cccnc1`, “inactive”.

With `CS(=O)(=O)c1ccc(Cl)c(NC(=O)COC(=O)C(O)(c2ccccc2)c2ccccc2)c1`, the growth rescue (activation) result was “inactive”. For `O=[As](O)(c1cccc(O)c1)c1cccc(O)c1` the value was “inactive”; for `Cc1cccc(OCC(=O)OC2CN3CCC2CC3)c1` (stereo not drawn), “inactive”; for `NC(=O)Nc1ccc([As](=O)(O)O)cc1`, “inactive”. For `N#CCCN(C(=O)COC(=O)C(O)(c1ccccc1)c1ccccc1)c1ccc(F)cc1` the value was “inactive”. Take `CN(C(=O)Cc1ccccc1)[C@@H]1CC[C@]2(CCCO2)C[C@H]1N1CCCC1`: the growth rescue (activation) entry was “inactive”.

Regarding `CCOP1(=S)c2c(C)nn(CCC#N)c2N=C(c2ccc(F)cc2)N1C` (stereo not drawn), the growth rescue (activation) entry was “inactive”. As to `CN(C)C(=O)c1cc([N+](=O)[O-])cc2c1-c1c(cc([N+](=O)[O-])cc1[N+](=O)[O-])C2=O`, the growth rescue (activation) result is “inactive”. As for `O=[N+]([O-])c1ccc2c(c1)nnn2O`, the growth rescue (activation) entry is “inactive”. The result for `CN(C(=O)Cc1ccc(Cl)c(Cl)c1)[C@H]1CC[C@@]2(CCCO2)C[C@@H]1N1CCCC1` reads “inactive”; that for `CCOP1(=S)c2c(C)nn(CCC#N)c2N=C(c2ccccc2F)N1C` (stereo not drawn), “inactive”; that for `O=P(Nc1nccs1)(c1ccccc1)c1nc2ccccc2s1` (stereo not drawn), “inactive”. For `O=P(Nc1nccs1)(Oc1ccccc1)Oc1ccccc1`, the growth rescue (activation) entry was “inactive”. With `CS(=O)(=O)c1cc([N+](=O)[O-])c2no[n+]([O-])c2c1`, the growth rescue (activation) entry is “inactive”. The result for `O=C(O)COc1ccc([As](=O)(O)O)cc1[N+](=O)[O-]` reads “inactive”.

Consider `Nc1ccccc1[As](=O)(O)c1ccccc1`, for which the growth rescue (activation) entry was “inactive”. For the compound `Cc1ccc(S(=O)(=O)N(CCCN)CCCc2c(C)nc(N)[nH]c2=O)cc1`, the growth rescue (activation) entry is “inactive”. The result for `O=P1(Nc2ncccn2)COc2ccccc2OC1` reads “inactive”; that for `Nc1cccc([As](=O)(O)c2ccccc2)c1`, “inactive”.

As for `NS(=O)(=O)c1cccc(NC(=O)COC(=O)C(O)(c2ccccc2)c2ccccc2)c1`, the growth rescue (activation) entry is “inactive”. Take `O=P1(Nc2ccc(Br)cn2)COc2ccccc2OC1`: the growth rescue (activation) result was “inactive”. Consider `O=[As](O)(c1cccs1)c1cccs1`, for which the growth rescue (activation) entry was “inactive”.

For `Cc1ccc(OCC(=O)OC2CN3CCC2CC3)cc1` (stereo not drawn), the growth rescue (activation) result is “inactive”.

Take `Cc1nn(-c2ccccc2)c2c1P(=O)(N1CCOCC1)N(C)C(c1ccccc1)=N2` (stereo not drawn): the growth rescue (activation) entry was “inactive”.

Consider `Cc1ccc(C(=O)OC2CN3CCC2CC3)cc1` (stereo not drawn), for which the growth rescue (activation) result is “inactive”. The result for `CC1CCC(C(C)C)C(OP(=O)(Nc2ccccn2)c2ccccc2)C1` (stereo not drawn) reads “inactive”; that for `CN(C)C1(CNC(=O)c2ccc(S(C)(=O)=O)cc2)CCCCC1`, “inactive”; that for `O=C(/C=C/c1ccccc1)OC1CN2CCC1CC2` (stereo not drawn), “inactive”. The result for `CCCC1OP(=O)(Nc2ccccc2)OCC1CC` (stereo not drawn) reads “inactive”; that for `COc1ccccc1CNC(=O)COC(=O)C(O)(c1ccccc1)c1ccccc1`, “inactive”; that for `CN(C(=O)Cc1ccc(Cl)c(Cl)c1)[C@@H]1CCCC[C@H]1N1CCCC1`, “inactive”.

For the compound `CC(C)/C=N\N=C(\N)N[N+](=O)[O-]`, the growth rescue (activation) entry was “inactive”.
